How the values were obtained:
Rattus norvegicus [1] = species: Rattus norvegicus; test: Selectivity index, ratio of Ki for NET in Sprague-Dawley rat frontal cortex membranes to Ki for DAT in Sprague-Dawley rat brain membranes; format: cell membranes
Rattus norvegicus [2] = species: Rattus norvegicus; test: Selectivity index, ratio of Ki for SERT in Sprague-Dawley rat brain stem membranes to Ki for DAT in Sprague-Dawley rat brain membranes; format: cell membranes
[3] = molecular target: Sodium-dependent serotonin transporter (Rattus norvegicus) (UniProt P31652); test: Displacement of [3H]citalopram from SERT in Sprague-Dawley rat brain stem membranes incubated for 60 mins at 100 uM by radioligand binding assay; format: tissue-based

The chains behind the UniProt entries cited, without tags or fusion partners.
UniProt P31652, whole entry: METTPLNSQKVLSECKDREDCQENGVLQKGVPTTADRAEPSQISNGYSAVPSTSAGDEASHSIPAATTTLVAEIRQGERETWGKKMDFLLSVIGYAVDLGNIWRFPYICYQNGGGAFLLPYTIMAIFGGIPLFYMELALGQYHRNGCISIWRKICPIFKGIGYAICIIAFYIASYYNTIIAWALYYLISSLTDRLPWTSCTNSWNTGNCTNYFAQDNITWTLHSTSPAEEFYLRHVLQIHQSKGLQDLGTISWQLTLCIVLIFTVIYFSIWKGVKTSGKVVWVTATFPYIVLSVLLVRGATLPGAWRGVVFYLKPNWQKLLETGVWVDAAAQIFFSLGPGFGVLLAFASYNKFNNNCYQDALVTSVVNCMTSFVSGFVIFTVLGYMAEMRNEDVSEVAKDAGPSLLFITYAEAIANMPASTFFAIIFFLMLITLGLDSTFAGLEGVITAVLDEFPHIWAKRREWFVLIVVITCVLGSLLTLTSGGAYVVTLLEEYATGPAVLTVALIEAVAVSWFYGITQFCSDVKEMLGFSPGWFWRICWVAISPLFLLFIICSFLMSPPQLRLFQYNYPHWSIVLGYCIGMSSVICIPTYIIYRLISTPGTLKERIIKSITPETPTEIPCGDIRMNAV

With `[O-][S+](CCN1CCN(CCCc2ccccc2)CC1)C(c1ccc(F)cc1)c1ccc(F)cc1` (configuration not stated) the Ratio Ki (Rattus norvegicus [1]) was over 100 and the Ratio Ki (Rattus norvegicus [2]) was over 100.

Work on `O=C(CSC(c1ccccc1)c1ccccc1)N1CCN(CCCc2ccccc2)CC1` yielded a Ratio Ki (Rattus norvegicus [1]) of over 100 and a Ratio Ki (Rattus norvegicus [2]) of over 100.

For `OC(Cc1ccccc1)CN1CCN(CCSC(c2ccccc2)c2ccccc2)CC1` (configuration not stated), the Ratio Ki (Rattus norvegicus [1]) was over 100 and the Ratio Ki (Rattus norvegicus [2]) was over 100.

`CCCCN1C2CCC1CC(OC(c1ccc(F)cc1)c1ccc(F)cc1)C2` (configuration not stated) was tested, and the inhibition [3] was under 50%.

From ChEMBL document CHEMBL3862037 (J Med Chem, 2016)
